# Patent US20020137154A1, “Methods for improving cell growth and alcohol production during fermentation” (priority 2000, published 2002)
# What was measured:
# Assay type in all cases: cell-based
# [1] = tested on: recombinant Escherichia coli KO11; experiment: Batch fermentation of E. coli KO11 in 1% CSL medium and xylose with nutrient additives: ethanol production and cell growth; conditions: for activity at 2000 µg/mL: Escherichia coli
# Protocol: (§1) Two types of media were tested: 1% CSL and Luria broth (LB). Each contained 97 g of either xylose or glucose per liter. Luria Broth consists of, per liter: 10 g Difco® Tryptone, 5 g Difco® Yeast Extract and 5 g NaCl. The 1% CSL medium consists of Corn Steep Liquor (1% w/v) plus mineral salts (mineral salts per liter: 1 g of KH2PO4. 0.5 g of K2HPO4, 3.1 g of (NH4)2SO4, 0.4 g of MgCl2·6H2), and 20 mg FeCl3·6H2O).
# (§2) Luria Broth was prepared by autoclaving a 2× nutrient stock containing, per liter: 20 g Difco® Tryptone, 10 g Difo® Yeast Extract, and 10 g NaCl. Sugars (xylose or glucose) were autoclaved separately. A 1% CSL medium was prepared as follows: Commercial Corn Steep Liquor (CSL; 50% dry weight/50% water) was diluted with tap water to make a 20X stock containing 100 g dry weight of Corn Steep Liquor/L and was adjusted to pH 7.2 with NaOH (50%). After sterilization by autoclaving, the 20X CSL stock was clarified by centrifugation at 5000×g for 10 minutes. Magnesium was added as a 100× stock solution (40 g/L MgCl2·6H2O). Iron was added as a 1000× stock solution made by dissolving 20 g FeCl3·6H2O in 175 mL of HCl and adjusting to 1 L with sterile water. Nitrogen, sulfur and phosphorus were added using a 20× stock solution containing the following (per liter): 20 g of KH2PO4, 10 g of K2HPO4 and 62 g of (NH4)2SO4. Stock solutions containing minerals were sterilized separately by autoclaving. Final media was prepared by adding 750 mL of water to 1 L bottle containing 100 g of xylose or glucose.
# Inocula were grown in same media used for fermentation and were prepared as follows. Three colonies from a fresh plate were used to inoculate seed cultures: 250-mL flask containing 100 mL medium. These cultures were grown with agitation (120 rpm) for 12-16 hours at 35° C. to a final OD550nm of approximately 2.0-2.5. Cells were harvested by centrifugation at 5000×g for 5 minutes, and resuspended in fresh media to an OD550nm of 0.1. The resulting suspension was distributed into 500-mL beakers containing 345 ml each of fermentation medium. Acetaldehyde was added as indicated. Batch fermentations (35° C., 100 rpm) were maintained at pH 6.5 by the automatic addition of 2N KOH. Cell mass, ethanol, and base addition (2N KOH) were recorded during 96 hours of incubation. […]
# (§3) Additives (e.g., as listed in Table 1) were dissolved in 5 mL di-H2O. Solutions with pH lower than 5 were neutralized to pH 6.5 with 2N KOH. Nutritional supplements were then filter-sterilized (0.45 μm filter disk) directly into the fermentation vessel containing the culture. The final concentration of all additives in the culture medium was 2 g/L unless otherwise indicated.
# (§4) Cell mass was estimated by measuring OD550nm using Baush & Lomb® Spectronic 70 spectrophotometer. […] Ethanol was measured by gas chromatography using a Varian® 3400 CX gas chromatograph with 1-propanol as an internal standard.
# (§5) Tables 1, 3, and 5 show time to completion of fermentation, ethanol production, and volumetric productivity of the fermentation for all concentrations of the compound and the control. Maximum ethanol production is shown in grams/liter (g/L). The ethanol yield is shown in grams of ethanol/grams of added sugar. Maximum volumetric productivity is shown in grams ethanol/(liter)(hour). The average productivity is calculated form the start of fermentation to the completion of fermentation is grams ethanol/(liter)hour).
# Tables 2, 4, and 6 show the initial growth of the cells (OD taken after the first 24 hours of fermentation) and the maximum cell density (the time which culture reaches the maximum OD value). […]
# [2] = tested on: recombinant Escherichia coli KO11; experiment: Batch fermentation of E. coli KO11 in 1% CSL medium and glucose with nutrient additives: ethanol production and cell growth; conditions: for activity at 2000 µg/mL: Escherichia coli
# Protocol: as §1, §2
# (§6) Inocula were grown in same media used for fermentation and were prepared as follows. Three colonies from a fresh plate were used to inoculate seed cultures: 250-mL flask containing 100 mL medium. These cultures were grown with agitation (120 rpm) for 12-16 hours at 35° C. to a final OD550nm of approximately 2.0-2.5. Cells were harvested by centrifugation at 5000×g for 5 minutes, and resuspended in fresh media to an OD550nm of 0.1. The resulting suspension was distributed into 500-mL beakers containing 345 ml each of fermentation medium. Acetaldehyde was added as indicated. Batch fermentations (35° C., 100 rpm) were maintained at pH 6.5 by the automatic addition of 2N KOH. Cell mass, ethanol, and base addition (2N KOH) were recorded during 96 hours of incubation.
# (§7) Equivalent amounts of distilled water were added instead of the acetaldehyde in control experiments.
# as §3, §4, §5
# (§8) Tables 2, 4, and 6 show the initial growth of the cells (OD taken after the first 24 hours of fermentation) and the maximum cell density (the time which culture reaches the maximum OD value).
# (§9) Acetaldehyde was added to the fermentation medium at five different concentrations and time points. […] Where two additions are indicated, the first volume was added at the start of fermentation and the second was added after 8 hours of fermentation.
# [3] = tested on: recombinant Escherichia coli KO11; experiment: Batch fermentation of E. coli KO11 in Luria broth and xylose with nutrient additives: ethanol production and cell growth; conditions: LB+xylose; additive 2 g/L unless indicated
# Protocol: as §1, §2, §6, §7, §3, §4, §5, §8, §9
# [4] = 1% CSL+xylose, additive 2 g/L unless indicated
# [5] = 24 h, read-out: Initial Growth (OD @ 24 h) % Control
# [6] = 1% CSL+glucose, additive 2 g/L unless indicated
structure (smiles),measurement,setting,value
O=C(O)CC(C(=O)O)C(O)C(=O)O (stereo not drawn) [Isocitrate],Initial Growth (OD @ 24 h) OD,[1]; [4],2.17 OD
same,activity at 2000 µg/mL,[1]; [5],106%
same,activity at 2000 µg/mL,[1]; read-out: Ethanol Production Maximum % Control,110%
same,activity at 2000 µg/mL,[1]; read-out: Volumetric Productivity Average % Control,110%
same,Initial Growth (OD @ 24 h) OD,[2]; [6],2.78 OD
same,Maximum Cell Density OD,[2]; [6],2.62 OD
same,activity at 2000 µg/mL,[2]; [5],104%
same,activity at 2000 µg/mL,[2]; read-out: Maximum Cell Density % Control,97.6%
same,activity at 2000 µg/mL,[2]; read-out: Volumetric Productivity Maximum % Control,114%
"O=C(O)CCC(=O)C(=O)O [a-KG, α-ketoglutarate]",Maximum Cell Density % Control,[1]; [4],224.85%
same,Maximum Cell Density OD,[1]; [4],5.66 OD
same,Maximum Cell Density Time,[1]; [4],72 h
same,Volumetric Productivity Average,[1]; [4],0.588 grams ethanol/(liter)(hour)
same,Volumetric Productivity Average % Control,[1]; [4],187.59%
same,Volumetric Productivity Maximum,[1]; [4],0.866 grams ethanol/(liter)(hour)
same,Maximum Cell Density % Control,[2]; [6],128.90%
same,Maximum Cell Density OD,[2]; [6],3.46 OD
same,Maximum Cell Density Time,[2]; [6],72 h
same,Volumetric Productivity Average,[2]; [6],0.560 grams ethanol/(liter)(hour)
same,Volumetric Productivity Average % Control,[2]; [6],145.37%
same,Volumetric Productivity Maximum,[2]; [6],0.657 grams ethanol/(liter)(hour)
same,Volumetric Productivity Maximum % Control,[2]; [6],127.95%
same,Ethanol Production Maximum % Control,[3],98.60%
same,Maximum Cell Density % Control,[3],95.90%
same,Maximum Cell Density OD,[3],10.59 OD
same,Maximum Cell Density Time,[3],48 h
same,Volumetric Productivity Average,[3],0.885 grams ethanol/(liter)(hour)
same,Volumetric Productivity Average % Control,[3],98.60%
same,Volumetric Productivity Maximum,[3],1.348 grams ethanol/(liter)(hour)
same,Volumetric Productivity Maximum % Control,[3],117.02%
